Measured values as given in ChEMBL document CHEMBL1148377, “Identification of novel binding interactions in the development of potent, selective 2-naphthamidine inhibitors of urokinase. Synthesis, structural analysis, and SAR of N-phenyl amide 6-substitution” (J Med Chem, 2004).

What follows are compounds tested against Urokinase-type plasminogen activator (Homo sapiens, UniProt P00749).

Ki [nM]	SMILES
40	[H]/N=C(\N)c1ccc2cc(C(=O)Nc3ccc(CN)cc3)ccc2c1
7980	N=C(N)c1ccc2cc(C(=O)Cc3ccccc3)ccc2c1
1900	N#Cc1ccc2cc(NC(=O)c3ccccc3)ccc2c1
28	N=C(N)c1ccc2cc(C(=O)Nc3cccc(OC4CCCC4)c3)ccc2c1
